Literature values as cited in patent publication US20220080043A1, “OIL/SURFACTANT MIXTURES FOR SELF-EMULSIFICATION” (priority 2019, published 2022).
Like-named read-outs stand apart in the source and are kept apart here.

In the case of “alpha-tocopherol-polyethylene glycol succinate [TPGS]”, the HLB is listed as 13-13.2 and the HLB (Table 2, surfactants used) is listed as 13-13.2.
